Source: patent publication US20140349862A1, “METHODS AND COMPOSITIONS FOR THERAPEUTIC DRUG MONITORING AND DOSING BY POINT OF CARE PHARMACOKINETIC PROFILING” (priority 2011, published 2014)
Like-named read-outs stand apart in the source and are kept apart here.

Conditions: human, in vivo

| Substance | AUC variability as SD/Mean (im) [%] | AUC variability as SD/Mean (sc) [%] |
| --- | --- | --- |
| Metrodin: urinary follicle stimulating hormone preparation | 20.57 | 17.69 |
| Follegon: urinary follicle stimulating hormone preparation | 26.08 | 18.42 |
| Normegon: FSH preparation given sc in the published FSH PK studies |  | 17.72 |
